The assay addresses Mu-type opioid receptor (Cavia porcellus, UniProt P97266). Put plainly: Agonist activity at mu opioid receptor in guinea pig ileum assessed as inhibition of electrically-stimulated muscle contraction.

By UniProt entry, the sequences of proteins in these tests, tags left out.
UniProt P97266, whole entry, looked up: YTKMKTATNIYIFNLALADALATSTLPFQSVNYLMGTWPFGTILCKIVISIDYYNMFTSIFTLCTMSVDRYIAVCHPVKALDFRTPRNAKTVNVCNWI

For the compound `C[C@@H](NC(=O)[C@@H](N)Cc1ccc(O)cc1)C(=O)NCC(=O)N[C@@H](Cc1ccccc1)C(N)=O`, the IC50 was found to be 47 nM.

For the origin of these results see ChEMBL document CHEMBL1177813, “Design and synthesis of trivalent ligands targeting opioid, cholecystokinin, and melanocortin receptors for the treatment of pain” (Bioorg Med Chem Lett, 2010).
